Read-outs that look alike come from different tables or passages of the source.
Target: T1, purified murine COX-2 (Mus musculus, UniProt Q05769)
T1 sequence (Q05769 18-604): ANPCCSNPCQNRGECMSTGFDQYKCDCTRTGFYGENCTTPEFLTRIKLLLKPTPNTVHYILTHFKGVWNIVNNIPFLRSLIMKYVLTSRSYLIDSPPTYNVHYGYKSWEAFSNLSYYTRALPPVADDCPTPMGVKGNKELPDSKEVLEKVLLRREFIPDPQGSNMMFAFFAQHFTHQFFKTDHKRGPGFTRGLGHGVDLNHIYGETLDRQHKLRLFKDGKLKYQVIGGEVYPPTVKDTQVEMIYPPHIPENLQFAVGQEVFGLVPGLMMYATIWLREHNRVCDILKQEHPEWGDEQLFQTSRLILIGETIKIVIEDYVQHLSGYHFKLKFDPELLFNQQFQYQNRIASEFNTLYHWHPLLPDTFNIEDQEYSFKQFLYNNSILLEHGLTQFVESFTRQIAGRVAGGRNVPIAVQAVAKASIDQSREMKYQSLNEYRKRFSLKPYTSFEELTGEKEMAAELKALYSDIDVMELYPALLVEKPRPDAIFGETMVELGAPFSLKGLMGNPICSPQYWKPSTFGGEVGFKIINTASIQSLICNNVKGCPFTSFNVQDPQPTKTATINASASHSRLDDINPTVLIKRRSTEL
Assay: Inhibition of mCOX-2-dependent oxygenation of 2-AG and AA by lumiracoxib and derivatives in vitro
Type: biochemical
Parameters: dose or concentration left out as unconfirmed

[1] = read-out: Maximum inhibition of AA oxygenation

| SMILES | inhibition [1] | inhibition (read-out: Maximum inhibition of 2-AG oxygenation) |
| --- | --- | --- |
| Cc1ccc(Nc2c(F)cccc2Cl)c(CC(=O)O)c1 | 25% |  |
| O=C(O)Cc1ccccc1Nc1c(F)cccc1Cl [Compound 109] | 15% |  |
| O=C(O)Cc1ccccc1Nc1ccccc1Cl [Compound 110] | 0% |  |
| O=C(O)Cc1ccccc1Nc1ccccc1 [Compound 112] | 15% | 8% |
| O=C(O)Cc1ccccc1Nc1c(F)cccc1F [Compound 114] | 10% |  |

Source: US20150183737A1 (published 2015)
